Test system: TEL-VEGFR2-BaF3
Assay: Proliferation of TEL-VEGFR2-BaF3 cells, CCK8 cell viability assay
Format: cell-based
Conditions: Mus musculus, 72 h, read-out: GI50 TEL-VEGFR2-BaF3
Description: In this example the following cells were used: […] (purchased from ATCC), mouse P210-BaF3 (stably expressing BCR-ABL mutant activated kinase), mouse P210/T315I-BaF3 (stably expressing BCR-ABL/T315I mutant activated kinase), mouse FLT3-ITD-BaF3 (stably expressing FLT3/ITD mutant activated kinase), mouse TEL-FLT3-BaF3 (stably expressing FLT3 kinase), mouse TEL-cKIT-BaF3 (stably expressing cKIT kinase), mouse BaF3-tel/T670I-cKit (stably expressing cKIT/T670I mutant activated kinase), mouse Tel-VEGFR2-BaF3 (stably expressing VEGFR2 kinase), mouse Tel-PDGFRα-BaF3 (stably expressing PDGFRα kinase), mouse Tel-PDGFRβ-BaF3 (stably expressing PDGFRβ kinase), mouse Tel-RET-BaF3 (stably expressing RET kinase). The above cell lines were all constructed by our laboratory according to the following method: the kinase region sequences of human P210, P210/T315I, FLT3/ITD, FLT3, cKIT, cKIT/T670I, VEGFR2, PDGFRα, PDGFRβ, RET were respectively amplified by PCR, and inserted into MSCV-Puro vectors having N-terminal TEL or TPR fragments (Clontech). […]
GI50 (unit: μM) was calculated by quantifying the number of living cells based on quantitative measurement of reductive dehydrogenase in living cells with CCK8 cell viability assay kit (Bestbio, China).

Structure (SMILES): CNC(=O)c1cc(Oc2ccc(NC(=O)Nc3ccc(Cl)c(C(F)(F)F)c3)cc2)ccn1 [Sorafenib, reference compound]
- GI50: 33 nM
